Screens (PubChem BioAssay)
PI4K2A block – PI4K2A (human) kinase inhibition. activity change, negative = inhibition, % at 76.9 µM. AID 1346378. actives 0.13% (n = 420,000). Q9BTU6. purified PI4K2A, ADP-Glo luminescence, 1 h; hits give low values; in the data active = activity change below about -50%; inconclusive = mostly about -30% to -49%
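PI4K2A activity was measured by ADP-Glo luminescence: enzyme (4 ug/mL stock) and phosphatidylinositol (1.2 mM stock) in Tris pH 7.5/MgCl2/EGTA/Triton X-100 buffer were reacted with ATP (300 microM stock) for one hour at ambient temperature.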
miR-21 reporter – raises the signal of a miR-21 reporter; HeLa miR-21 FLuc reporter, luciferase, 48 h; Potency, µM (top dose mostly 38.3 µM); AID 2288; 340,000 tested, under 10 active; active = well fitted rising curve with a large enough effect; inconclusive = small, poorly fitted or top-dose-only effect; inactive = no such curve, though single readings can be large or run the other way;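 note: miR-21 action dims this reporter so a rising signal means less miR-21 action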
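Using DMEM plus 10% FBS, HeLa miR-21-FLuc cells are incubated with test compounds (final up to about 40uM) for 48 hours; firefly luciferase signal is then imaged following reagent-mediated lysis.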
Nrf2 block – inhibitors of Nrf2 signaling. A549 ARE-Fluc reporter, luciferase luminescence, 18-24 h. Potency, µM (titrated, usually from 46 µM), hits mostly inhibitors. actives 2.1% (n = 360,000). AID 504444; also: nearly all actives have a fitted effect of over 60% in size
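A549 ARE_Fluc cells (5000/well, 5% FBS OPTI-MEM) pre-incubated 2 h, then treated with compounds 18-24 h at 37C/5% CO2 in concentration-response. CellTiter-Fluor viability read first; BugLite luciferase luminescence after 15 min at room temperature gives Nrf2 activity.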
Nrf2 activator – activates Nrf2 signaling | Potency, µM (highest dose often 46.1 µM), most hits filed as activators | AREc32 ARE-luciferase reporter (MCF7-derived line), luminescence, 24 h | AID 624171 | actives 0.31% (n = 410,000); also: nearly all actives have a fitted effect of over 65% in size
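Luciferase luminescence (Steady-Glo, 30 min at room temperature) served as the read-out of ARE activation in AREc32 cells treated with compounds for 24 hr at 37 deg C.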
A549 tox – A549 cytotoxicity, counter-screen for Nrf2 inhibitors; A549 ARE-Fluc cells, CellTiter-Fluor viability, 18-24 h; Potency, µM (highest dose often 46 µM), usual class: inhibitors; actives 0.16% (n = 390,000); AID 504648
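A549 ARE_Fluc cells in 5% FBS OPTI-MEM were exposed to compounds in concentration-response for 18-24 h at 37 deg C. Viability was read by CellTiter-Fluor fluorescence (Ex 405/Em 525) after 30 min, before the luciferase read.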
GALK inh – blocks human galactokinase activity. actives 0.007% (n = 270,000). Potency, µM (series often up to 57.5 µM), usual class: inhibitors. AID 1868. Purified GALK, Kinase-Glo residual ATP luminescence
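GALK at 5 nM final was combined with compound, 35 uM ATP and 100 uM galactose in HEPES pH8.0 with MgCl2 and DTT. The reaction ran one hour at room temperature before luminescent ATP detection.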
Of the large screens only hits and unclear results are named; the others gave an inactive call; ! = a repeat was not active. Hits are enriched below; roughly 2.2% of the tested compounds scored in any of these assays. Unless noted, calls follow the shape of the dose curve; as a rule, active = well fitted curve in the direction sought with a large enough effect; inconclusive = small, poorly fitted or top-dose-only effect, or another doubt; inactive = no such curve, though single readings can be large; an effect the other way counts as inactive or inconclusive.

CO[C@@H]1[C@@H](O[C@@H]2O[C@H](C)[C@@H](O[C@H]3C[C@@](C)(O)[C@@H](O)[C@H](C)O3)[C@H](N(C)C)[C@H]2O)[C@@H](CC=O)C[C@@H](C)[C@@H](O[C@@H]2CC[C@H](N(C)C)[C@@H](C)O2)/C=C/C=C/C[C@@H](C)OC(=O)C[C@H]1OC(C)=O	none (no result: miR-21 reporter, Nrf2 block, Nrf2 activator, A549 tox, GALK inh)
COc1cc(C2CC(=O)c3cnc(N4CCN(Cc5ccccc5)CC4)nc3C2)cc(OC)c1OC (stereo not drawn)	Nrf2 block inconclusive, A549 tox inconclusive
COc1ccc(C2CC(=O)c3c(C)nc(N4CCN(Cc5ccccc5)CC4)nc3C2)cc1OC (stereo not drawn)	miR-21 reporter inconclusive, Nrf2 block 18µM (no result: A549 tox)
Cc1ccc(/C=C/C(=O)OCC(=O)Nc2cccnc2Cl)o1	Nrf2 activator 2.8µM (no result: miR-21 reporter, GALK inh)
CC(C)(N[C@@H](Cc1c[nH]c2ccccc12)C(=O)NCCCc1ccccc1)C(=O)NCc1ccccc1	none (no result: miR-21 reporter, Nrf2 block, Nrf2 activator, A549 tox, GALK inh)
CCCCN(CCCC)CCCNC(=O)C1CC(c2cc(C(F)(F)F)cc(C(F)(F)F)c2)=NO1 (stereo not drawn)	PI4K2A block -66 (no result: miR-21 reporter, GALK inh)
CCn1cc(CN(C)C(=O)CSc2nc(-c3ccco3)cc(C(F)(F)F)n2)c(C)n1	Nrf2 block inconclusive (no result: miR-21 reporter, GALK inh)
Cc1c(CN(C)C(=O)CSc2nc(-c3ccco3)cc(C(F)(F)F)n2)cnn1C	Nrf2 block 16µM
COc1ccccc1CCNC(=O)CCSc1nc(-c2ccco2)cc(C(F)(F)F)n1	Nrf2 block 18µM
Cc1ccc(S(=O)(=O)/N=C2/C=C(Sc3ncn[nH]3)C(=O)c3ccccc32)c(C)c1	miR-21 reporter inconclusive (no result: PI4K2A block, Nrf2 block, Nrf2 activator, A549 tox)
Cc1ccc(S(=O)(=O)/N=C2/C=C(Sc3ncn[nH]3)C(=O)c3ccccc32)cc1	PI4K2A block -70, miR-21 reporter inconclusive, Nrf2 block inconclusive, A549 tox inconclusive
CC(C)c1ccc(S(=O)(=O)/N=C2/C=C(Sc3ncn[nH]3)C(=O)c3ccccc32)cc1	PI4K2A block -55, miR-21 reporter inconclusive, Nrf2 block 18µM, A549 tox inconclusive
CC(=O)CC[C@H]1CC[C@]2(CCCN(C(=O)c3ccco3)C2)O1	none (no result: miR-21 reporter, Nrf2 block, Nrf2 activator, A549 tox, GALK inh)
CC1CC1C(=O)Nc1nc(-c2ccc(Cl)s2)cs1 (stereo not drawn)	Nrf2 block 23µM
O=C(Nc1nc(-c2ccc(Cl)s2)cs1)c1ccncc1	Nrf2 block inconclusive
Cc1[nH]nc2c1C1(C(=O)N(Cc3ccc(Cl)cc3)c3ccccc31)C(C#N)=C(N)O2 (stereo not drawn)	Nrf2 block 21µM
Cc1ccc(O)c(-n2nc3ccccc3n2)c1	none
Oc1ccccc1-n1nc2ccc3nonc3c2n1	Nrf2 activator 10µM
Cc1ccc(Cl)cc1NS(=O)(=O)c1cc2c(cc1F)NC(=O)CC2	none (no result: PI4K2A block, miR-21 reporter, Nrf2 activator, GALK inh)
O=C(O)CSCC(=O)Nc1ccc(C2CCCCC2)cc1	miR-21 reporter inconclusive, Nrf2 block 5.2µM
CCCCn1c(-c2ccc(Br)cc2F)nc2c1c(=O)[nH]c(=O)n2CC(C)C	Nrf2 block 21µM, A549 tox inconclusive
O=S(=O)(Nc1ccc2c(c1)nc1n2CCN(Cc2ccccc2)C1)c1ccc(Cl)cc1	Nrf2 block 13µM, A549 tox inconclusive
CN(Cc1ccccc1)S(=O)(=O)c1cccc(C(=O)OCc2ccc(Oc3ccccc3)cc2)c1	none (no result: miR-21 reporter, Nrf2 block, Nrf2 activator, A549 tox, GALK inh)
O=[N+]([O-])C(/C=C(\Cl)[N+](=O)[O-])=C(N1CCCCC1)N1CCCCC1	A549 tox 23µM
O=[N+]([O-])C(=C1SCCS1)C(=C(Cl)Cl)N1CCCCC1	none
Nc1cccnc1Sc1cccc(Cl)c1	PI4K2A block -69 (no result: GALK inh)
Cc1ccc(NC(=O)Nn2cnnc2)cc1Cl	none
Cc1ccc(NC(=O)O/N=C/c2c(C)nn(C(C)(C)C)c2C)cc1Cl	miR-21 reporter inconclusive, Nrf2 block 0.33µM
Cc1ccc(S(=O)(=O)c2c(C)nn(C(C)(C)C)c2OC(=O)C2CCCC2)cc1	miR-21 reporter inconclusive, Nrf2 block 21µM
CC(C)(C)C(=O)NC(=S)NNC(=O)C(c1ccccc1)c1ccccc1	Nrf2 block 21µM
CCNC(=S)NNC(=O)C(c1ccccc1)c1ccccc1	none
CC(=O)NNC(=S)NC(=O)C(c1ccccc1)c1ccccc1	Nrf2 block 16µM, A549 tox inconclusive
Cc1ccc(Nc2ccc3cc(S(=O)(=O)N4CCC(C)CC4)ccc3n2)c(Cl)c1	none (no result: GALK inh)
CC1CCN(S(=O)(=O)c2ccc3nc(-c4ccccn4)cc(C(=O)NCCN(C)Cc4ccccc4)c3c2)CC1	none
CC1CCN(S(=O)(=O)c2ccc3nc(Nc4cccc(F)c4)ccc3c2)CC1	Nrf2 block 21µM, A549 tox inconclusive (no result: GALK inh)
CC1CCN(S(=O)(=O)c2ccc3nc(NCc4ccccc4)ccc3c2)CC1	Nrf2 block 16µM (no result: GALK inh)
CCCCCN1CCCCC(NC(=O)C(C)(C)C)C1=O (stereo not drawn)	none (no result: miR-21 reporter, Nrf2 block, Nrf2 activator, A549 tox, GALK inh)
CC(=O)c1c(C)oc2ccc(NS(=O)(=O)c3ccc(C)cc3)cc12	none
CC(=O)c1c(C)oc2ccc(NS(=O)(=O)c3ccc(C(C)C)cc3)cc12	Nrf2 block 13µM (no result: GALK inh)
O=[S+]([O-])(c1ccc2c(c1)OCCO2)N1CCN([S+](=O)([O-])c2ccc(F)cc2Br)CC1	none (no result: PI4K2A block, miR-21 reporter, Nrf2 activator, GALK inh)
CCC(C(=O)OCCN1CCOC(c2ccccc2)C1C)c1ccccc1 (stereo not drawn)	none (no result: miR-21 reporter, Nrf2 block, Nrf2 activator, A549 tox, GALK inh)
CCc1nnc(NC(=O)c2nc(S(=O)(=O)Cc3cccc(C)c3)ncc2Cl)s1	PI4K2A block inconclusive, miR-21 reporter inconclusive, Nrf2 block 23µM, A549 tox inconclusive
CCc1nnc(NC(=O)c2nc(S(=O)(=O)Cc3ccc(C)cc3)ncc2Cl)s1	miR-21 reporter inconclusive, Nrf2 block 21µM!, A549 tox inconclusive
CC(C)c1nnc(NC(=O)c2nc(S(=O)(=O)Cc3ccc(F)cc3)ncc2Cl)s1	miR-21 reporter inconclusive, Nrf2 activator inconclusive, A549 tox inconclusive
CCc1nnc(NC(=O)c2nc(S(=O)(=O)Cc3ccccc3)ncc2Cl)s1	miR-21 reporter inconclusive, Nrf2 activator 14µM, A549 tox inconclusive
Cc1ccc(CS(=O)(=O)c2ncc(Cl)c(C(=O)Nc3nnc(C(C)C)s3)n2)cc1	miR-21 reporter inconclusive, Nrf2 block 21µM!, A549 tox inconclusive
CCCc1cc(=O)n2[nH]cc(-c3ccc(Cl)cc3)c2n1	Nrf2 block 21µM, A549 tox inconclusive
Brc1ccc(-c2csc(/N=C/N3CCCC3)n2)cc1	Nrf2 block 12µM
Brc1ccc(-c2csc(/N=C/N3CCOCC3)n2)cc1	Nrf2 block inconclusive
CC(C)(C)OC(=O)N[C@@H](Cc1ccccc1)c1nnc(SCC(=O)c2ccc(Cl)cc2)o1	Nrf2 block 26µM
